One molecule from patent US6426343B1 (dated 2002) can be followed below.

The chains behind the UniProt entries cited, without tags or fusion partners. Residues count along the entry.
UniProt P18507, 40-467 isoform P18507-1 limits assumed: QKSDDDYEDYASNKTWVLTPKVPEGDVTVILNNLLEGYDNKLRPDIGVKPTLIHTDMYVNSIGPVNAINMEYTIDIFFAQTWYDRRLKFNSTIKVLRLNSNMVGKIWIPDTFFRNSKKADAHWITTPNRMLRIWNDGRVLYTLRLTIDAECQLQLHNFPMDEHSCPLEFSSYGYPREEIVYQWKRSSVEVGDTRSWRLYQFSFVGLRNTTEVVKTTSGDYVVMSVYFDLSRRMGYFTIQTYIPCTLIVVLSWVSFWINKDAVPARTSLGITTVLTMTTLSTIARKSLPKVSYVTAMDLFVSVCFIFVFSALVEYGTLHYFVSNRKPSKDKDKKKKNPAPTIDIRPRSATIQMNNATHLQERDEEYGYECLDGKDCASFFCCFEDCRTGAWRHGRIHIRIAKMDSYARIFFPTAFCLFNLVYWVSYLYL
UniProt P47869, 29-451: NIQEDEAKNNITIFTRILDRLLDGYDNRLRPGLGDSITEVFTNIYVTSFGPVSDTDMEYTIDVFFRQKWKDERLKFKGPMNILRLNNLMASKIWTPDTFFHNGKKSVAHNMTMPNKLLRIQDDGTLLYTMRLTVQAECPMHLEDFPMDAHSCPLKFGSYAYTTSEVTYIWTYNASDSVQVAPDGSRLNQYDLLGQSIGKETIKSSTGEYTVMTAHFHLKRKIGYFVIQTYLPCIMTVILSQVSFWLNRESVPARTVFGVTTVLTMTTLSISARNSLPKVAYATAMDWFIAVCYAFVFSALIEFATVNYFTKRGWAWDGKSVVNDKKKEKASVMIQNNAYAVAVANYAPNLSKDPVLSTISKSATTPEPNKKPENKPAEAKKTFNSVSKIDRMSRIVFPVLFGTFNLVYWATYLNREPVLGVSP
UniProt P14867, 28-456: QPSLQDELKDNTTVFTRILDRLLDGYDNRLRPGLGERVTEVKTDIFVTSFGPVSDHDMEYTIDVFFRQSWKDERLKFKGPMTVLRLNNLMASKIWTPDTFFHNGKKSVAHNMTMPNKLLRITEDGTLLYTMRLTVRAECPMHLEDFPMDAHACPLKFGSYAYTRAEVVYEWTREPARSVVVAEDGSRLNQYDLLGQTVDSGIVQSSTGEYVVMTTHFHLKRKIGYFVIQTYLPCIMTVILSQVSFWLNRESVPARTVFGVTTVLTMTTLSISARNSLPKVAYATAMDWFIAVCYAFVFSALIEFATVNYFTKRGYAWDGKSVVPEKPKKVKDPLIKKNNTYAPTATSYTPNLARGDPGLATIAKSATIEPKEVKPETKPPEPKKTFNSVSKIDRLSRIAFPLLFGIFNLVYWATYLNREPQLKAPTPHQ

One assay concerns the target α2β3γ2 (Homo sapiens, UniProt P18507+P47869). Put plainly: Radioligand binding, membranes of stably transfected cells. The settings on record: read-out: Ki α2β3γ2; [3H]Ro 15-1788 at twice Kd; mean±SEM, 3-6 determinations.
The target of another assay is α1β3γ2 (Homo sapiens, UniProt P14867+P18507). Conditions: read-out: Ki α1β3γ2; [3H]Ro 15-1788 at twice Kd; mean±SEM, 3-6 determinations.

As to `CCOC(=O)c1ncn2c1CN(C)C(=O)c1cc(N=[N+]=[N-])ccc1-2` [Ro 15-4513, reference compound], the Ki on α2β3γ2 worked out at 2.6 ± 0.7 nM; on α1β3γ2 it was 2.6 ± 0.11 nM.

A word on the Ki: it is a measure of affinity in units of concentration, obtained from inhibition or displacement.
